Patent US12478617B2, “Lipidated peptide inhibitors of interleukin-23 receptor” (JANSSEN BIOTECH, INC., priority 2021, dated 2025)

The molecules below were run against T1, peripheral blood mononuclear cells (PBMCs) (Homo sapiens, UniProt Q5VWK5) (assay: PBMC pSTAT3 assay). Settings: PBMCs from healthy donors, anti-CD3/IL-1β cultured; peptide 30 min, then IL-23 5 ng/mL for 30 min; phosphorylated STAT3 (Meso Scale Discovery); read-out: PBMC pSTAT3 IC50.
T1 sequence (Q5VWK5 24-629): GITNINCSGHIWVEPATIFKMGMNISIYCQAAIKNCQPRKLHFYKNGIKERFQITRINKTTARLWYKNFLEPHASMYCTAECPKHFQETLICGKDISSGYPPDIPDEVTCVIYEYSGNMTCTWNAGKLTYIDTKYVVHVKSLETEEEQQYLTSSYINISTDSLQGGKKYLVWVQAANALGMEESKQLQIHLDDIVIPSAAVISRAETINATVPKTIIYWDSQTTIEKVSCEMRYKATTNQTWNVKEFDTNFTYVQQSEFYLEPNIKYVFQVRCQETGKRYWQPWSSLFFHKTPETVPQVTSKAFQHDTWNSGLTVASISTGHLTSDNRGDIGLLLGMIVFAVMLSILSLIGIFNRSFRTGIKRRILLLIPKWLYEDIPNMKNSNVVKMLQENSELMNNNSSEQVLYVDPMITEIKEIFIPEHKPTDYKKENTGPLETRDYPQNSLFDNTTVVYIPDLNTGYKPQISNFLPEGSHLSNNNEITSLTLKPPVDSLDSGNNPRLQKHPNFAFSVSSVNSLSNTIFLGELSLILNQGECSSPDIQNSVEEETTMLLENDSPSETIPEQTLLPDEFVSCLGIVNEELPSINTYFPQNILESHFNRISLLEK
Format: cell-based
Text: IL-23 binding to IL-23 receptors results in the activation of the Signal Transducer and Activator of Transcription 3 (STAT3) by phosphorylation and downstream signaling events. Accordingly. the ability of the inhibitors described herein to block IL-23 action can be assessed by monitoring the status of STAT3 activation in response to IL-23. This may be accomplished in reporter cell assays or in intact cells such as peripheral blood mononuclear cells (PBMCs).
Cryopreserved peripheral blood mononuclear cells (PBMCs) from healthy donors were thawed and washed twice in ImmunoCult-XF T cell expansion medium (XF-TCEM) supplemented with CTL anti-aggregate wash. The cells were counted, resuspended at 2×10^5 cells per mL XF-TCEM supplemented with penicillin/streptomycin and 100 ng/mL IL-1β (BioLegend, 579404), and cultured in tissue culture flasks coated with anti-CD3 (eBioscience, 16-0037-85 or BD Pharmingen, 555329) at 37° C. in 5% CO2. On day 4 of culture, PBMCs were collected, washed twice in RPMI-1640 supplemented with 0.1% BSA (RPMI-BSA), and incubated in RPMI-BSA in upright tissue culture flasks for 4 hours at 37° C. in 5% C02. Following this ‘starvation,’ a total of 6×10^4 cells in 30 μL RPMI-BSA was transferred into each well of a 384-well plate pre-spotted with peptide in DMSO. The cells were incubated for 30 minutes prior to the addition of IL-23 at a final concentration of 5 ng/mL. The cells were stimulated withcytokine for 30 minutes at 37° C. in 5% CO2, transferred onto ice for 10 minutes, and lysed. Cell lysates were stored at −80° C. until phosphorylated STAT3 was measured using the phospho-STAT panel kit (Meso Scale Discovery, K15202D).

| Molecule | IC50 |
| --- | --- |
| CC(=O)NCCCC[C@@H]1NC(=O)[C@H](Cc2c[nH]c3c(C)cccc23)NC(=O)[C@H]([C@@H](C)O)NC(=O)[C@H](CC(N)=O)NC(=O)[C@@H](NC(=O)[C@@H](CCCCNC(=O)COCCOCCNC(=O)COCCOCCNC(=O)CC[C@H](NC(=O)CCCCCCCCCCCCCCCCC(=O)O)C(=O)O)NC(C)=O)C(C)(C)SSC(C)(C)[C@@H](C(=O)N[C@@H](Cc2ccc(OCCN)cc2)C(=O)N[C@@H](Cc2ccc3ccccc3c2)C(=O)NC2(C(=O)N[C@@H](CCCCNC(C)=O)C(=O)N[C@@H](CC(N)=O)C(=O)N[C@@H](Cc3cccnc3)C(=O)N(C)CC(N)=O)CCOCC2)NC1=O [Example 5, MeCO-k(PEG2PEG2gEC180H)-Pen*-N-T-7MeW-K(Ac)-Pen*-AEF-2Nal-THP-K(Ac)-N-3Pva-Sar-CONH2 (*Pen-Pen form disulfide bond)] | 0.16 nM |

These molecules were tested against T2, IL-23R (Homo sapiens, UniProt Q5VWK5) (assay: IL23R Reporter Assay). Settings: HEK293 cells containing IL-23R, IL-12Rβ1 and STAT-inducible firefly luciferase reporter; 10 ng/mL IL-23 (EC90); 5 h at 37° C.; read-out: IC50.
T2 construct: HEK293 cells containing IL-23R, IL-12RP31 and a firefly luciferase reporter gene driven by a STAT-inducible promoter (Promega); host or cells: HEK293
T2 sequence (Q5VWK5 24-629): T1 sequence (Q5VWK5 24-629)
Format: cell-based

| Molecule | IC50 |
| --- | --- |
| CC(=O)NCCCC[C@@H]1NC(=O)[C@H](Cc2c[nH]c3c(C)cccc23)NC(=O)[C@H]([C@@H](C)O)NC(=O)[C@H](CC(N)=O)NC(=O)[C@@H](NC(=O)[C@@H](CCCCNC(=O)COCCOCCNC(=O)COCCOCCNC(=O)CC[C@H](NC(=O)CCCCCCCCCCCCCCCCC(=O)O)C(=O)O)NC(C)=O)C(C)(C)SSC(C)(C)[C@@H](C(=O)N[C@@H](Cc2ccc(OCCN)cc2)C(=O)N[C@@H](Cc2ccc3ccccc3c2)C(=O)NC2(C(=O)N[C@@H](CCCCNC(C)=O)C(=O)N[C@@H](CC(N)=O)C(=O)N[C@@H](Cc3cccnc3)C(=O)N(C)CC(N)=O)CCOCC2)NC1=O [Example 5, MeCO-k(PEG2PEG2gEC180H)-Pen*-N-T-7MeW-K(Ac)-Pen*-AEF-2Nal-THP-K(Ac)-N-3Pva-Sar-CONH2 (*Pen-Pen form disulfide bond)] | 0.021 nM |

Each molecule was assayed against IL-23R-expressing DB cells (Homo sapiens, UniProt Q5VWK5) (assay: DB Cells IL23R pSTAT3 Cell Assay). Settings: pSTAT3 (HTRF) in IL-23R-expressing DB cells, 0.5 nM IL-23, 30 minutes; Table 6 'IL-23 Cell Data'.
Format: cell-based
Text: IL-23 is believed to play a central role in supporting and maintaining Th17 differentiation in vivo. This process is thought to be mediated primarily through the Signal Transducer and Activator of Transcription 3 (STAT3), with phosphorylation of STAT3 (to yield pSTAT3) leading to upregulation of RORC and pro-inflammatory IL-17. This cell assay examines the levels of pSTAT3 in IL-23R-expressing DB cells when stimulated with IL-23 in the presence of test compounds. Serial dilutions of test peptides and IL-23 (Humanzyme #HZ-1261) at a final concentration of 0.5 nM, were added to each well in a 96 well tissue culture plate (Corning #CLS3894). DB cells (ATCC #CRL-2289), cultured in RPMI-1640 medium (Thermo Scientific #11875093) supplemented with 10% FBS, were added at 5 X 10E5 cells/well and incubated for 30 minutes at 37° C. in a 5% CO2 humidified incubator. Changes in phospho-STAT3 levels in the cell lysates were detected using the Cisbio HTRF pSTAT3 (Tyr705) Cellular Assay Kit (Cisbio #62AT3PEH), according to manufacturer's Two Plate Assay protocol. Where not shown or it is marked as “0”, data was not yet determined.

| Molecule | IC50 |
| --- | --- |
| Ac-[Pen]-L-T-[Trp(7-Me)]-[Lys(PEG4)]-[Pen]-F-[2Nal]-[aMeLeu]-L-N-[3Pal]-[Sarc]-NH2 [Example 214] | 0.433 nM |
| Ac-[Pen]-L-T-[Trp(7-Me)]-[Lys(PEG4_C18_Diacid)]-[Pen]-[Phe(4-OMe)]-[2Nal]-[THP]-[Lys(Ac)]-L-[3Pal]-[Sarc]-NH2 [Example 270] | > 10 nM |
| Ac-[Pen]-L-T-[Trp(7-Me)]-[Lys(PEG4_IsoGlu_C18_Diacid)]-[Pen]-[Phe(4-OMe)]-[2Nal]-[THP]-L-L-[3Pal]-[Sarc]-NH2 [Example 266] | > 10 nM |
| Ac-[Pen]-L-T-[Trp(7-Me)]-[Lys(PEG4_IsoGlu_C18_Diacid)]-[Pen]-[Phe(4-OMe)]-[2Nal]-[THP]-[Lys(Ac)]-L-[3Pal]-[Sarc]-NH2 [Example 274] | > 10 nM |
| Ac-[Pen]-L-T-[Trp(7-Me)]-[Lys(PEG4_IsoGlu_Palm)]-[Pen]-[Phe(4-OMe)]-[2Nal]-[THP]-L-L-[3Pal]-[Sarc]-NH2 [Example 265] | > 10 nM |
| Ac-[Pen]-L-T-[Trp(7-Me)]-[Lys(PEG4_IsoGlu_Palm)]-[Pen]-[Phe(4-OMe)]-[2Nal]-[THP]-[Lys(Ac)]-L-[3Pal]-[Sarc]-NH2 [Example 273] | > 10 nM |
| Ac-[Pen]-L-T-[Trp(7-Me)]-[Lys(PEG12_C18_Diacid)]-[Pen]-[Phe(4-OMe)]-[2Nal]-[THP]-[Lys(Ac)]-L-[3Pal]-[Sarc]-NH2 [Example 269] | 2.63 nM |
| Ac-[Pen]-L-T-[Trp(7-Me)]-[Lys(PEG12_IsoGlu_Palm)]-[Pen]-[Phe(4-OMe)]-[2Nal]-[THP]-L-L-[3Pal]-[Sarc]-NH2 [Example 267] | > 10 nM |
| Ac-[Pen]-L-T-[Trp(7-Me)]-[Lys(PEG12_IsoGlu_Palm)]-[Pen]-[Phe(4-OMe)]-[2Nal]-[THP]-[Lys(Ac)]-L-[3Pal]-[Sarc]-NH2 [Example 275] | 2.37 nM |
| Ac-[Pen]-L-T-[Trp(7-Me)]-[Lys(PEG12_OMe)]-[Pen]-F-[2Nal]-[aMeLeu]-L-N-[3Pal]-[Sarc]-NH2 [Example 210] | 0.0798 nM |
| Ac-[Pen]-L-[Lys(PEG12_IsoGlu_C18_Diacid)]-[Trp(7-Me)]-[Lys(Ac)]-[Pen]-[Phe(4-OMe)]-[2Nal]-[THP]-[Lys(Ac)]-L-[3Pal]-[Sarc]-NH2 [Example 247] | > 10 nM |
| Ac-[Pen]-L-[Lys(PEG12_IsoGlu_Palm)]-[Trp(7-Me)]-[Lys(Ac)]-[Pen]-[Phe(4-OMe)]-[2Nal]-[THP]-[Lys(Ac)]-L-[3Pal]-[Sarc]-NH2 [Example 246] | > 10 nM |
| Ac-[Pen]-N-T-[Trp(7-Me)]-[Lys(Ac)]-[Pen]-F-[2Nal]-[aMeLys(PEG12_IsoGlu_Palm)]-E-L-[3Pal]-[Sarc]-NH2 [Example 222] | 2.62 nM |
| Ac-[Pen]-N-T-[Trp(7-Me)]-[Lys(Ac)]-[Pen]-F-[2Nal]-[aMeLys(PEG12_IsoGlu_Palm)]-L-L-[3Pal]-[Sarc]-NH2 [Example 221] | 5.22 nM |
| Ac-[Pen]-N-T-[Trp(7-Me)]-[Lys(Ac)]-[Pen]-F-[2Nal]-[aMeLys(PEG12_IsoGlu_Palm)]-[Lys(Ac)]-L-[3Pal]-[Sarc]-NH2 [Example 234] | 0.512 nM |
| Ac-[Pen]-N-T-[Trp(7-Me)]-[Lys(Ac)]-[Pen]-[2Nal]-[2Nal]-[aMeLys(PEG12_IsoGlu_Palm)]-E-L-[3Pal]-[Sarc]-NH2 [Example 219] | 2.87 nM |
| Ac-[Pen]-N-T-[Trp(7-Me)]-[Lys(Ac)]-[Pen]-[2Nal]-[2Nal]-[aMeLys(PEG12_IsoGlu_Palm)]-[Lys(Ac)]-L-[3Pal]-[Sarc]-NH2 [Example 220] | 2.68 nM |
| Ac-[Pen]-N-T-[Trp(7-Me)]-[Lys(Ac)]-[Pen]-[Phe(4-(2-(1PEG2_1PEG2_IsoGlu_C18_Diacid)aminoethoxy))]-[2Nal]-[THP]-[Lys(Ac)]-L-[3Pal]-[Sarc]-NH2 [Example 229] | 3.51 nM |
| Ac-[Pen]-N-T-[Trp(7-Me)]-[Lys(Ac)]-[Pen]-[Phe(4-(2-(1PEG2_1PEG2_IsoGlu_Palm)aminoethoxy))]-[2Nal]-[THP]-[Lys(Ac)]-L-[3Pal]-[Sarc]-NH2 [Example 228] | 5.11 nM |
| Ac-[Pen]-N-T-[Trp(7-Me)]-[Lys(Ac)]-[Pen]-[Phe(4-(2-(PEG12_IsoGlu_C18_Diacid)aminoethoxy))]-[2Nal]-[THP]-[Lys(Ac)]-L-[3Pal]-[Sarc]-NH2 [Example 279] | 0.277 nM |
| Ac-[Pen]-N-T-[Trp(7-Me)]-[Lys(Ac)]-[Pen]-[Phe(4-(2-(PEG12_IsoGlu_Palm)aminoethoxy))]-[2Nal]-[THP]-[Lys(Ac)]-L-[3Pal]-[Sarc]-NH2 [Example 231] | 2.83 nM |
| Ac-[Pen]-N-T-[Trp(7-Me)]-[Lys(Ac)]-[Pen]-[Phe(4-OMe)]-[2Nal]-[aMeLys(PEG12_IsoGlu_C18_Diacid)]-A-A-[3Pal]-[Sarc]-NH2 [Example 235] | 0.585 nM |
| Ac-[Pen]-N-T-[Trp(7-Me)]-[Lys(Ac)]-[Pen]-[Phe(4-OMe)]-[2Nal]-[aMeLys(PEG12_IsoGlu_Palm)]-E-L-[3Pal]-[Sarc]-NH2 [Example 217] | 1.37 nM |
| Ac-[Pen]-N-T-[Trp(7-Me)]-[Lys(Ac)]-[Pen]-[Phe(4-OMe)]-[2Nal]-[aMeLys(PEG12_IsoGlu_Palm)]-[Lys(Ac)]-L-[3Pal]-[Sarc]-NH2 [Example 218] | 1.01 nM |
| Ac-[Pen]-N-T-[Trp(7-Me)]-[Lys(PEG12_OMe)]-[Pen]-F-[2Nal]-[aMeLeu]-L-N-[3Pal]-[Sarc]-NH2 [Example 208] | 0.056 nM |
| MeCO-k(gEC18)-Pen(3)-E(2)-T-7MeW-K(Ac)-Pen(3)-AEF(2)-2Nal-THP-K(Ac)-N-3Pya-Sar-CONH2 [Compound 310] | 0.615 nM |
